Values of other authors as cited in patent US7422793B2, “Non-toxic corrosion-protection rinses and seals based on rare earth elements” (University of Dayton, priority 2002, dated 2008).

Details: pH 7; cited from earlier work

Substance | Solubility in Water
Ammonium perborate | 0.18 mol/L
Rubidium perchlorate | 0.22 mol/L
Barium chlorite | 0.1 mol/L
Lithium sulfate | 2.7 × 10^0 mole/L
Rubidium vanadate | 0.5 mol/L
Ammonium tantalate | 0.01 mol/L
Cerium (III) dimethylphosphate | 0.76 mol/L
Ammonium hexafluorotitanate | 0.1 mol/L
Ammonium niobate | 0.1 mol/L
Zinc fluorogallate | 0.1 mol/L
Rubidium hexafluorosilicate | 0.0069 mol/L
Iron (II) hexafluorosilicate | 4.19 × 10^0 mole/L
Germanium dioxide hydrate | 0.043 mol/L
Cesium hexafluoroantimonate | 5 × 10^0 mole/L
Germanium fluoride hydrate | 0.1 mol/L
Lithium chlorite | 5 × 10^0 mole/L
Rubidium chlorate | 0.3 mol/L

Substance | Solubility in Water
Rubidium fluoroantimonate | 1.6 × 10^0 mole/L
Calcium hexaniobate | 0.047 mol/L
Ammonium stannate | 5 × 10^0 mole/L
Ammonium molybdate | 5 × 10^0 mole/L
Ammonium fluoroaluminate | 0.053 mol/L
Ammonium hexafluorohafnate | 1 × 10^0 mole/L
Lithium perborate | 0.1 mol/L
Strontium chlorite | 0.5 mol/L
Rubidium molybdate | 6.4 × 10^0 mole/L
Ammonium fluorozirconate | 0.1 mol/L
Ammonium fluorostannate | 0.1 mol/L
Calcium chlorite | 1 × 10^0 mole/L
Calcium nitrite | 3.9 × 10^0 mole/L
Sodium vanadate | 1.7 × 10^0 mole/L
Sodium chlorite | 4.3 × 10^0 mole/L
Lithium hexafluoroaluminate | 0.0066 mol/L
Lithium vanadate | 1 × 10^0 mole/L
